This is an account of results in ChEMBL document CHEMBL5506020 (J Med Chem, 2024).

Chains of the proteins cited; added tags and fusions are not shown.
UniProt Q09472, whole entry: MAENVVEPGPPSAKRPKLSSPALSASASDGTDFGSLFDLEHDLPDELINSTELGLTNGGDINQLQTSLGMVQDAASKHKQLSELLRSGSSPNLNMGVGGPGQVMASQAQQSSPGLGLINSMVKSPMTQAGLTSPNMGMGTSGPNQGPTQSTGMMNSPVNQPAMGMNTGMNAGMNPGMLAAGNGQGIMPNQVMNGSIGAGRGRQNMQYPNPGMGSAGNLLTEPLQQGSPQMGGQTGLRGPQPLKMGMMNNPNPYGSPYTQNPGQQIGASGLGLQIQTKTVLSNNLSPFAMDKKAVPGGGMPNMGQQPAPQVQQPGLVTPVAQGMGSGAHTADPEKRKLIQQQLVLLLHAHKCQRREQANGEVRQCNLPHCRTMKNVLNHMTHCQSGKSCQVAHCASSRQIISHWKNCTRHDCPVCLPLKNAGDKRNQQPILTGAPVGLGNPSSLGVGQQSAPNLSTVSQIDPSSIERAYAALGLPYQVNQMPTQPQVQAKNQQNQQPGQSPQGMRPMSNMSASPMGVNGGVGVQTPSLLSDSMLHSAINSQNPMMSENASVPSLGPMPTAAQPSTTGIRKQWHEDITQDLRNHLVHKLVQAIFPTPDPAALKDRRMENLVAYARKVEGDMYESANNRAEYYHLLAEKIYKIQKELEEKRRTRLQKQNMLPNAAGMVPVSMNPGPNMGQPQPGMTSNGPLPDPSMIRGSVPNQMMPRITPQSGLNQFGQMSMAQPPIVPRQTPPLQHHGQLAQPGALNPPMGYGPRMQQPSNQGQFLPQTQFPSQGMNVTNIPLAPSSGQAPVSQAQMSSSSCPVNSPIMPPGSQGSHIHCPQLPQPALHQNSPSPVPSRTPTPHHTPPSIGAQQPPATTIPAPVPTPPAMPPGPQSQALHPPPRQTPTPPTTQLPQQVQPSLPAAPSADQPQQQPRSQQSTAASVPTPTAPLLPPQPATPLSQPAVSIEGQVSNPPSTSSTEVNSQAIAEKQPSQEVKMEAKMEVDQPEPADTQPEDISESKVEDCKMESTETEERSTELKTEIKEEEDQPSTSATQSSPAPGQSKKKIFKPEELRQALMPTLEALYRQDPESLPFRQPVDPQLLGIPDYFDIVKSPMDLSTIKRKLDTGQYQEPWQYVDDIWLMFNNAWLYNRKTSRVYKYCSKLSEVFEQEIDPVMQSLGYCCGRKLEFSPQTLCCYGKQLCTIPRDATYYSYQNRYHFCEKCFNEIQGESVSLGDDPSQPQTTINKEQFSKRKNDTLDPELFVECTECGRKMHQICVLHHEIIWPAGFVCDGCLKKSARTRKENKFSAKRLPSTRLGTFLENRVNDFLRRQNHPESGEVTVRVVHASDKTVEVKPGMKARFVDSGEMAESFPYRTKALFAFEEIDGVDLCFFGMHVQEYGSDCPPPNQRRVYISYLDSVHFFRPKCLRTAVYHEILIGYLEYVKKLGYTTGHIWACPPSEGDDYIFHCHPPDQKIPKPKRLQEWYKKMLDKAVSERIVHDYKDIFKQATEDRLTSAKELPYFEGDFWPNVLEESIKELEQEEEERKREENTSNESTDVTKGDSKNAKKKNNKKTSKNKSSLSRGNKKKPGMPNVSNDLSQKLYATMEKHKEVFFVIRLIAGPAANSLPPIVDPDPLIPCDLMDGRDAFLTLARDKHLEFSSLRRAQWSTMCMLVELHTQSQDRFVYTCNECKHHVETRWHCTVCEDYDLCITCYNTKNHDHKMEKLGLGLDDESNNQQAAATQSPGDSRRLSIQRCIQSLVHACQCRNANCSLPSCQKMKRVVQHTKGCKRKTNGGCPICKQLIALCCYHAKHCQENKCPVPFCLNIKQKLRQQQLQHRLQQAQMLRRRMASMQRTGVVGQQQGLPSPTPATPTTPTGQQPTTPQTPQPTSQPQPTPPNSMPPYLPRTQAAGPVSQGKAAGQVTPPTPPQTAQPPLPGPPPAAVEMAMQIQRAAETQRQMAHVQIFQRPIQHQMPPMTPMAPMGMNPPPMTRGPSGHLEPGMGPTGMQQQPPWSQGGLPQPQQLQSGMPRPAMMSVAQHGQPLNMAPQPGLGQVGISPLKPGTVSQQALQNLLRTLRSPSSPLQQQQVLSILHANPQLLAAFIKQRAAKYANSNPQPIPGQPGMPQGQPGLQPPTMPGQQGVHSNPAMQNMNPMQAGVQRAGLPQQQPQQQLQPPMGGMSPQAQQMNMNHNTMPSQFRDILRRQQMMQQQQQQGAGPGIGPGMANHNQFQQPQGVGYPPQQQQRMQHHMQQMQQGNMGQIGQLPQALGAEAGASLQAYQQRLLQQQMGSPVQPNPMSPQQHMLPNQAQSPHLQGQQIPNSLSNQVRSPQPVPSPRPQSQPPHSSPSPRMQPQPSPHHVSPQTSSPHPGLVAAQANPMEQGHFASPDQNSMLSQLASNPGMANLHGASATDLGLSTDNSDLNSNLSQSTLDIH
UniProt Q92793, whole entry: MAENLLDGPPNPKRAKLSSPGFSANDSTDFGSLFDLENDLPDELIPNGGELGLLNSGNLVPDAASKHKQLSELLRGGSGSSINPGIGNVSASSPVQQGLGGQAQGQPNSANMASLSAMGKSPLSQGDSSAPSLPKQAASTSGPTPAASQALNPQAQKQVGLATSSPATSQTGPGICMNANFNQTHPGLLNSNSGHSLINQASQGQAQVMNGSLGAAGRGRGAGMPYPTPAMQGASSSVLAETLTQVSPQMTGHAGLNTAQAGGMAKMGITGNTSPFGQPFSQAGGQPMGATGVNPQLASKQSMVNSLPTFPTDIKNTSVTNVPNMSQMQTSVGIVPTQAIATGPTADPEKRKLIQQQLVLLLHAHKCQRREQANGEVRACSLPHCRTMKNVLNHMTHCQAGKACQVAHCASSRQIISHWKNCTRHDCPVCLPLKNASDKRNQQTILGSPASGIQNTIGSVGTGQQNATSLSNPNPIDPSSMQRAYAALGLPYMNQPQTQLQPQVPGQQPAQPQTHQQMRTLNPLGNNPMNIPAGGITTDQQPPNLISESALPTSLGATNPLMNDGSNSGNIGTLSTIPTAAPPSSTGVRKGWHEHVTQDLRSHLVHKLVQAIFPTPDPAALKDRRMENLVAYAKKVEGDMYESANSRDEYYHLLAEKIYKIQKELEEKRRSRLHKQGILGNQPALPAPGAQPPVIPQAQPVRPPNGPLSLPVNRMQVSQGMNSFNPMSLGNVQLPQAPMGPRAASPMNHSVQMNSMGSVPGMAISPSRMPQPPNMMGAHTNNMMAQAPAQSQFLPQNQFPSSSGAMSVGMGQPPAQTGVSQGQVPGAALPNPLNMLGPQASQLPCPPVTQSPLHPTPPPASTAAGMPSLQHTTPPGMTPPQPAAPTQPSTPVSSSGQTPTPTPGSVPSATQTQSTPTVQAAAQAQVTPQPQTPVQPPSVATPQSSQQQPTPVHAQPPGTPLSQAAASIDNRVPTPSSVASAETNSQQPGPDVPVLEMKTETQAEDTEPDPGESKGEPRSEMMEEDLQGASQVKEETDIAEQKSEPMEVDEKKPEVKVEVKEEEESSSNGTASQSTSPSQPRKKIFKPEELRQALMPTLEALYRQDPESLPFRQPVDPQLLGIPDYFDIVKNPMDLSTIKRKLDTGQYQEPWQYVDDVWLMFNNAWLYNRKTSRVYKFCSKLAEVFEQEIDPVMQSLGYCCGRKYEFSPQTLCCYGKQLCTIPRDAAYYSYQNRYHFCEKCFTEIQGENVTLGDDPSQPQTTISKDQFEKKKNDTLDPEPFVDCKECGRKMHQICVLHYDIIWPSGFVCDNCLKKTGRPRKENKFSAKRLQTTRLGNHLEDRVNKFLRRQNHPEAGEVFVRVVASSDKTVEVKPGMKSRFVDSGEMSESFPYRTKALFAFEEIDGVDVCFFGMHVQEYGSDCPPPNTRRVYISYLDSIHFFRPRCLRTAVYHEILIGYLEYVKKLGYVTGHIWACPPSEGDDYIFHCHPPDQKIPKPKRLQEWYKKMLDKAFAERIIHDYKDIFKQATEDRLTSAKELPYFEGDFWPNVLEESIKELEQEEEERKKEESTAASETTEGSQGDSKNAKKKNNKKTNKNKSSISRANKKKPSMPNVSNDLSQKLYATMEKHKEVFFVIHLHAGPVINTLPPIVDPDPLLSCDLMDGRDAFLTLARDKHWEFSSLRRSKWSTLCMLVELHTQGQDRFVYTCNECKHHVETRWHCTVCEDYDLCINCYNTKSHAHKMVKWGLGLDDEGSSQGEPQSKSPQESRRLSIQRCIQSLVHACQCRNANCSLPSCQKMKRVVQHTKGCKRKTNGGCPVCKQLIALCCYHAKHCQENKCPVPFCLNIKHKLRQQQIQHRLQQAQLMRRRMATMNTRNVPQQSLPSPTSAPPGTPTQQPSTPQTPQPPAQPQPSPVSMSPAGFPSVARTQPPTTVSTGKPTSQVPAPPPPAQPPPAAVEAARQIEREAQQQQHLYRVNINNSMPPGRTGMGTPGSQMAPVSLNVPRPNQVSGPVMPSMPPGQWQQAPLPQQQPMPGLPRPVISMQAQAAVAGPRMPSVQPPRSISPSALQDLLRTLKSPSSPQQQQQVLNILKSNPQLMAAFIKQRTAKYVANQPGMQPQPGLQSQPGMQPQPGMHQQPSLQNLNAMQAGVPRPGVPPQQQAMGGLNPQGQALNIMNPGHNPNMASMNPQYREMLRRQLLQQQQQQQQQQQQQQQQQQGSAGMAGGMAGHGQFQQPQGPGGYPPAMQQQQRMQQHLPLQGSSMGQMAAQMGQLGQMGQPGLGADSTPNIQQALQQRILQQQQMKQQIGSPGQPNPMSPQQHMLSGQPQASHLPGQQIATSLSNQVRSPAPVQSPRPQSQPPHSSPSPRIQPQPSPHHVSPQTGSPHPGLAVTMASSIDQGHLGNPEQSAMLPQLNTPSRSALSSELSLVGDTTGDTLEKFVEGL

The target in experiment [1] is Histone acetyltransferase p300 (Homo sapiens, UniProt Q09472).
For experiment [2], the target named is T1, CREB-binding protein (Homo sapiens, UniProt Q92793).
In experiment [3] the target is T1, CREB-binding protein. This is another data set of the same source.

For orientation: Kd means the free concentration of one partner at which half of the binding sites on the other are occupied at equilibrium, for simple one-to-one binding. Usually IC50 stands for the midpoint of a concentration-inhibition curve.

As for `CO[C@H]1CC[C@H](n2c([C@@H]3CCCC(=O)N3c3ccc(F)c(F)c3)nc3cc(-c4c(C)noc4C)ccc32)CC1` [INOBRODIB], the Kd in experiment [1] is 1.3 nM; at CREB-binding protein [2], 1.7 nM. Further, the concentration for half-maximal inhibition (IC50) on CREB-binding protein [3] was found to be 91.4 nM.
